The values below come from US7335723B2, “Melanin-concentrating hormone antagonists” (priority 2001, dated 2008).

Chains of the proteins cited; added tags and fusions are not shown. Lines headed by an entry give the natural chain unless they say otherwise; changes in a name come on top.
UniProt Q969V1: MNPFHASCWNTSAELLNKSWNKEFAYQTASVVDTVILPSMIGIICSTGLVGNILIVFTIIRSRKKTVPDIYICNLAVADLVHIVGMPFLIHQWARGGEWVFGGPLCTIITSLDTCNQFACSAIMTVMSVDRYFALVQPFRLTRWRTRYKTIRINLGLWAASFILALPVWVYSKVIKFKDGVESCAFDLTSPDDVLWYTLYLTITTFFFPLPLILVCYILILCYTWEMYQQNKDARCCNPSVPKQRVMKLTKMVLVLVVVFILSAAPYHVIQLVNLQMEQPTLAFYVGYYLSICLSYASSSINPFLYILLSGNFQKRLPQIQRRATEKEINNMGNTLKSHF
UniProt Q99705: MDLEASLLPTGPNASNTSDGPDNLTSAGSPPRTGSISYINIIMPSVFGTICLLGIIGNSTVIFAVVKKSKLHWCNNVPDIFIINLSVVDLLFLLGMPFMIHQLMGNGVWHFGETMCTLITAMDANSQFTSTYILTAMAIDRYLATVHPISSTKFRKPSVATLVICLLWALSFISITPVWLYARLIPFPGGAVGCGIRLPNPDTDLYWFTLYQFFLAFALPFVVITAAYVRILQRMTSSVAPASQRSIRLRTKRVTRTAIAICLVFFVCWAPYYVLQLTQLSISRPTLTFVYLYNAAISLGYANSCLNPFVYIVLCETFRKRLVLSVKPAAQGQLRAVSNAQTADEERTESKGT
UniProt P97639: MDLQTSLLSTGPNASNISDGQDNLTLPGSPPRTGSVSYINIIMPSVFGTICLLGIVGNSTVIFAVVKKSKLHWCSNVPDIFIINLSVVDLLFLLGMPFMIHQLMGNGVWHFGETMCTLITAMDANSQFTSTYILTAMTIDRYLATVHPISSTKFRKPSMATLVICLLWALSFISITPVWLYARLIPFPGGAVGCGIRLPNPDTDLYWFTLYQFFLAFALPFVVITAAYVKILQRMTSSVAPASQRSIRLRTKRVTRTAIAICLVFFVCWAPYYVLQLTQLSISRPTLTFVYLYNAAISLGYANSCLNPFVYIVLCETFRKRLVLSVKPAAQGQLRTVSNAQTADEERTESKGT

Assay [1] has as its target T1, human MCH-2R (Homo sapiens, UniProt Q969V1). Description: Aequorin bioluminescence functional assay, MCH-2R agonist activity.
For another assay, the target named is human MCH-1R (Homo sapiens, UniProt Q99705). Description: MCH-1R binding assay, inhibition of [125I]-human MCH binding to membranes.
Another assay concerns the target rat MCH-1R (Rattus norvegicus, UniProt P97639). Description: Aequorin bioluminescence functional assay, MCH-1R agonist activity.
Assay [2] concerns the target T1, human MCH-2R. Description: MCH-2R binding assay, inhibition of [125I]-human MCH binding to membranes. Also noted: expressed in transfected cells; host or cells: 293-AEQ17 (aequorin-expressing HEK-293 reporter line). As to conditions: inhibition of [125I]-human MCH (Phe13, Tyr19) binding, cell membranes.

In the case of `CSCC[C@@H]1NC(=O)[C@@H](NC(=O)CCCCNC(=N)N)CSSC[C@@H](C(N)=O)NC(=O)CNC(=O)CNC(=O)[C@H](Cc2ccc(O)cc2)NC(=O)[C@H](C(C)C)NC(=O)[C@H](CCCNC(=N)N)NC(=O)CNC(=O)[C@H](CC(C)C)NC1=O` [SEQ. ID. NO. 15], the EC50 on human MCH-2R [1] and at rat MCH-1R was more than 10 µM each time. For the same compound, the “MCH-2R Agonist Activation %” value at human MCH-2R [1] (293-AEQ17 cells expressing human MCH-2R) was found to be 6%. The IC50 (usually the concentration that inhibits the measured activity by half) on human MCH-1R stood at 0.92 µM. The “MCH-1R Agonist Activation %” value on rat MCH-1R (293-AEQ17 cells expressing rat MCH-1R) was found to be 3%.
On to `CSCC[C@@H]1NC(=O)[C@@H](NC(=O)CCCCNC(=N)N)CSSC[C@@H](C(N)=O)NC(=O)[C@H]2CC[C@H](CC2)NC(=O)[C@H]2CC[C@H](CC2)NC(=O)[C@H](Cc2ccc(O)cc2)NC(=O)[C@H](C(C)C)NC(=O)[C@H](CCCNC(=N)N)NC(=O)CNC(=O)[C@H](CC(C)C)NC1=O` [SEQ. ID. NO. 29], for which the IC50 at human MCH-1R stood at 0.017 µM; on human MCH-2R [2], 3 µM. In addition, the concentration for a half-maximal effect (EC50) (usually the midpoint of the concentration-response curve) on rat MCH-1R is more than 10 µM.
